From US12357591B2, “Sublingual epinephrine compositions including pH-modifying excipients and penetration enhancers and methods for use thereof” (Nova Southeastern University, priority 2018, dated 2025)
Read-outs that look alike come from different tables or passages of the source.

Protocol: Frozen pig's heads were obtained from local abattoir. Then, they were defrosted at room temperature. The porcine mucosa were excised by dissecting the sublingual mucosa and removing the underlying connective tissue using a scalpel and fine tweezers using established surgical techniques. The excised mucosa were frozen on aluminum foil at −20° C. until used (<4 weeks).
The sublingual mucosa (floor of the mouth) excised from pigs were used as the diffusion membranes. Mcvilian buffer at various pH was used in the donor cell as a diffusion medium.
Before each experiment, the mucosal membranes were defrosted at room temperature and mounted between the donor and receptor chambers and clamped using a metal clamp. The receptor chamber that has a magnetic stirrer was filled with the diffusion medium before mounting the membranes and air bubbles were removed after mounting the membranes and before the experiment. The water bath was set at 37° C. for the circulating water in the jacketed Franz Cells. The mounted membranes were equilibrated with the diffusion medium for 30 min from both sides before the experiment and were checked for any leaks.
Aliquots were withdrawn from the receptor chamber using 6 inch-long needles (Popper & Sons. Inc, New Hyde Park, NYC) and 1 mL syringes at 5, 10, 15, 20, 30, 45, 60, 75, and 90 min. The withdrawn volumes were replaced with fresh medium.
Samples were transferred to HPLC vials for HPLC analysis according to USP Method.

CNC[C@H](O)c1ccc(O)c(O)c1 [Epi, Epinephrine]
percentage of diffused epinephrine (%) (pH 5, 5 min): 0.5 ± 0.03%
percentage of diffused epinephrine (%) (pH 5, 10 min): 0.6 ± 0.01%
cumulative permeated epinephrine (20 mg) per area (pH 5, 15 min): 40.3 ± 1.3 μg/cm^2
percentage of diffused epinephrine (%) (pH 5, 15 min): 0.6 ± 0.02%
cumulative permeated epinephrine (20 mg) per area (pH 5, 20 min): 43.6 ± 1.1 μg/cm^2
percentage of diffused epinephrine (%) (pH 5, 20 min): 0.7 ± 0.02%
cumulative permeated epinephrine (20 mg) per area (pH 5, 30 min): 46.7 ± 1.4 μg/cm^2
percentage of diffused epinephrine (%) (pH 5, 30 min): 0.7 ± 0.02%
cumulative permeated epinephrine (20 mg) per area (pH 5, 45 min): 50.7 ± 1.5 μg/cm^2
percentage of diffused epinephrine (%) (pH 5, 45 min): 0.8 ± 0.02%
cumulative permeated epinephrine (20 mg) per area (pH 5, 60 min): 58.7 ± 3.9 μg/cm^2
percentage of diffused epinephrine (%) (pH 5, 60 min): 0.3 ± 0.06%
cumulative permeated epinephrine (20 mg) per area (pH 5, 75 min): 78.2 ± 7.5 μg/cm^2
percentage of diffused epinephrine (%) (pH 5, 75 min): 1.2 ± 0.12%
cumulative permeated epinephrine (20 mg) per area (pH 5, 90 min): 118.1 ± 3.5 μg/cm^2
percentage of diffused epinephrine (%) (pH 5, 90 min): 1.9 ± 0.6%
cumulative permeated epinephrine (20 mg) per area (pH 6, 5 min): 4.7 ± 1.5 μg/cm^2
percentage of diffused epinephrine (%) (pH 6, 5 min): 0.1 ± 0.02%
cumulative permeated epinephrine (20 mg) per area (pH 6, 10 min): 7.7 ± 1.6 μg/cm^2
percentage of diffused epinephrine (%) (pH 6, 10 min): 0.1 ± 0.02%
cumulative permeated epinephrine (20 mg) per area (pH 6, 15 min): 11.6 ± 1.0 μg/cm^2
percentage of diffused epinephrine (%) (pH 6, 15 min): 0.2 ± 0.02%
percentage of diffused epinephrine (%) (pH 6, 20 min): 0.2 ± 0.05%
cumulative permeated epinephrine (20 mg) per area (pH 6, 30 min): 23.2 ± 6.0 μg/cm^2
percentage of diffused epinephrine (%) (pH 6, 30 min): 0.4 ± 0.09%
cumulative permeated epinephrine (20 mg) per area (pH 6, 45 min): 43.3 ± 15.5 μg/cm^2
percentage of diffused epinephrine (%) (pH 6, 45 min): 0.7 ± 0.24%
cumulative permeated epinephrine (20 mg) per area (pH 6, 60 min): 66.4 ± 3.6 μg/cm^2
percentage of diffused epinephrine (%) (pH 6, 60 min): 1.0 ± 0.06%
cumulative permeated epinephrine (20 mg) per area (pH 6, 75 min): 147.8 ± 41.1 μg/cm^2
percentage of diffused epinephrine (%) (pH 6, 75 min): 2.3 ± 0.64%
cumulative permeated epinephrine (20 mg) per area (pH 6, 90 min): 240.0 ± 68.5 μg/cm^2
percentage of diffused epinephrine (%) (pH 6, 90 min): 3.8 ± 1.08%
cumulative permeated epinephrine (20 mg) per area (pH 6.6, 5 min): 20.2 ± 1.2 μg/cm^2
cumulative permeated epinephrine (20 mg) per area (pH 6.6, 10 min): 27.6 ± 0.4 μg/cm^2
cumulative permeated epinephrine (20 mg) per area (pH 6.6, 15 min): 44.9 ± 3.0 μg/cm^2
cumulative permeated epinephrine (20 mg) per area (pH 6.6, 20 min): 115.3 ± 2.6 μg/cm^2
cumulative permeated epinephrine (20 mg) per area (pH 6.6, 30 min): 119.9 ± 2.9 μg/cm^2
cumulative permeated epinephrine (20 mg) per area (pH 6.6, 45 min): 447.5 ± 212.7 μg/cm^2
cumulative permeated epinephrine (20 mg) per area (pH 6.6, 60 min): 877.6 ± 24 μg/cm^2
cumulative permeated epinephrine (20 mg) per area (pH 6.6, 75 min): 889.7 ± 3.2 μg/cm^2
cumulative permeated epinephrine (20 mg) per area (pH 6.6, 90 min): 1401.5 ± 85.0 μg/cm^2
percentage of diffused epinephrine (%) (pH 6.8, 5 min): 0.3 ± 0.02%
percentage of diffused epinephrine (%) (pH 6.8, 10 min): 0.4 ± 0.01%
percentage of diffused epinephrine (%) (pH 6.8, 15 min): 0.7 ± 0.05%
percentage of diffused epinephrine (%) (pH 6.8, 20 min): 1.8 ± 0.04%
percentage of diffused epinephrine (%) (pH 6.8, 30 min): 1.9 ± 0.05%
percentage of diffused epinephrine (%) (pH 6.8, 45 min): 7.0 ± 3.34%
percentage of diffused epinephrine (%) (pH 6.8, 60 min): 13.8 ± 0.04%
percentage of diffused epinephrine (%) (pH 6.8, 75 min): 14.0 ± 0.05%
percentage of diffused epinephrine (%) (pH 6.8, 90 min): 22.0 ± 1.33%
cumulative permeated epinephrine (20 mg) per area (pH 7.4, 5 min): 18.1 ± 0.7 μg/cm^2
percentage of diffused epinephrine (%) (pH 7.4, 5 min): 0.3 ± 0.01%
cumulative permeated epinephrine (20 mg) per area (pH 7.4, 10 min): 22.2 ± 1.3 μg/cm^2
percentage of diffused epinephrine (%) (pH 7.4, 10 min): 0.3 ± 0.02%
cumulative permeated epinephrine (20 mg) per area (pH 7.4, 15 min): 29.2 ± 1.1 μg/cm^2
percentage of diffused epinephrine (%) (pH 7.4, 15 min): 0.5 ± 0.02%
cumulative permeated epinephrine (20 mg) per area (pH 7.4, 20 min): 33.1 ± 0.6 μg/cm^2
percentage of diffused epinephrine (%) (pH 7.4, 20 min): 0.5 ± 0.01%
cumulative permeated epinephrine (20 mg) per area (pH 7.4, 30 min): 145.8 ± 3.8 μg/cm^2
percentage of diffused epinephrine (%) (pH 7.4, 30 min): 2.3 ± 0.06%
cumulative permeated epinephrine (20 mg) per area (pH 7.4, 45 min): 232.4 ± 6.6 μg/cm^2
percentage of diffused epinephrine (%) (pH 7.4, 45 min): 3.6 ± 0.10%
cumulative permeated epinephrine (20 mg) per area (pH 7.4, 60 min): 810.2 ± 156.9 μg/cm^2
percentage of diffused epinephrine (%) (pH 7.4, 60 min): 12.7 ± 2.46%
cumulative permeated epinephrine (20 mg) per area (pH 7.4, 75 min): 1644.8 ± 317.7 μg/cm^2
percentage of diffused epinephrine (%) (pH 7.4, 75 min): 25.8 ± 1.99%
cumulative permeated epinephrine (20 mg) per area (pH 7.4, 90 min): 2316.0 ± 4.6 μg/cm^2
percentage of diffused epinephrine (%) (pH 7.4, 90 min): 36.4 ± 0.07%
cumulative permeated epinephrine (20 mg) per area (pH 8, 5 min): 283.6 ± 1.7 μg/cm^2
percentage of diffused epinephrine (%) (pH 8, 5 min): 4.5 ± 0.03%
cumulative permeated epinephrine (20 mg) per area (pH 8, 10 min): 367.9 ± 3.0 μg/cm^2
percentage of diffused epinephrine (%) (pH 8, 10 min): 5.8 ± 0.05%
cumulative permeated epinephrine (20 mg) per area (pH 8, 15 min): 491.3 ± 9.3 μg/cm^2
percentage of diffused epinephrine (%) (pH 8, 15 min): 7.7 ± 0.15%
cumulative permeated epinephrine (20 mg) per area (pH 8, 20 min): 700.0 ± 7.0 μg/cm^2
percentage of diffused epinephrine (%) (pH 8, 20 min): 11.0 ± 0.11%
cumulative permeated epinephrine (20 mg) per area (pH 8, 30 min): 967.0 ± 14.4 μg/cm^2
cumulative permeated epinephrine (20 mg) per area (pH 8, 45 min): 1325.7 ± 11.7 μg/cm^2
cumulative permeated epinephrine (20 mg) per area (pH 8, 60 min): 1902.2 ± 19.1 μg/cm^2
percentage of diffused epinephrine (%) (pH 8, 60 min): 29.9 ± 0.30%
cumulative permeated epinephrine (20 mg) per area (pH 8, 75 min): 2667.9 ± 30.7 μg/cm^2
percentage of diffused epinephrine (%) (pH 8, 75 min): 41.9 ± 0.48%
cumulative permeated epinephrine (20 mg) per area (pH 8, 90 min): 3226.6 ± 29.9 μg/cm^2
percentage of diffused epinephrine (%) (pH 8, 90 min): 50.7 ± 0.47%
